Chains of the proteins cited; added tags and fusions are not shown. Residues count along the entry.
UniProt Q9UKV0, 604-1066 isoform 5 limits assumed: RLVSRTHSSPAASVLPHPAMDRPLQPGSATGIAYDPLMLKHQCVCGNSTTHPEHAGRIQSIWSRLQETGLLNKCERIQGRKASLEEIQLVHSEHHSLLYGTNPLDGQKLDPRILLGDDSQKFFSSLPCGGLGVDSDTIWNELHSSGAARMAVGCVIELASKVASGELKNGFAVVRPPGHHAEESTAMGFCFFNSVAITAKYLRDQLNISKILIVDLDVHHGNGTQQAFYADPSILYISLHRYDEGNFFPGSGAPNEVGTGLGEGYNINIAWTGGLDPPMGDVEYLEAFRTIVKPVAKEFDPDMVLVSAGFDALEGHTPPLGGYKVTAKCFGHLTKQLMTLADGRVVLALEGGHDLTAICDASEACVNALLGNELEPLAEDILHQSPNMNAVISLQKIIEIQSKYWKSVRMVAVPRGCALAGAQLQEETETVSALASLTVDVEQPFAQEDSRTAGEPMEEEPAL
UniProt Q8WUI4, 518-952 limits assumed: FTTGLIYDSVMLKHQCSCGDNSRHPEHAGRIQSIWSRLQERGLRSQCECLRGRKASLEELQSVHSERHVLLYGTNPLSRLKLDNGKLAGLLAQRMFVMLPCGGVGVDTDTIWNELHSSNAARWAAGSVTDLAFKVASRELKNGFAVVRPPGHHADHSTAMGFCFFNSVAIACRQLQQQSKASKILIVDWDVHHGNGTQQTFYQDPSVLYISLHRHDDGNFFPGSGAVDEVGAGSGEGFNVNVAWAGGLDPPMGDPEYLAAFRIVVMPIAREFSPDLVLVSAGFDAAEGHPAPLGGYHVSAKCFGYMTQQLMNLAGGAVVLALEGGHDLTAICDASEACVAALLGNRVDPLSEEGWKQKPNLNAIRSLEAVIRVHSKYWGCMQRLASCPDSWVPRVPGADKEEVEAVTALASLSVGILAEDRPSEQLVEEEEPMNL
UniProt Q9UBN7, whole entry: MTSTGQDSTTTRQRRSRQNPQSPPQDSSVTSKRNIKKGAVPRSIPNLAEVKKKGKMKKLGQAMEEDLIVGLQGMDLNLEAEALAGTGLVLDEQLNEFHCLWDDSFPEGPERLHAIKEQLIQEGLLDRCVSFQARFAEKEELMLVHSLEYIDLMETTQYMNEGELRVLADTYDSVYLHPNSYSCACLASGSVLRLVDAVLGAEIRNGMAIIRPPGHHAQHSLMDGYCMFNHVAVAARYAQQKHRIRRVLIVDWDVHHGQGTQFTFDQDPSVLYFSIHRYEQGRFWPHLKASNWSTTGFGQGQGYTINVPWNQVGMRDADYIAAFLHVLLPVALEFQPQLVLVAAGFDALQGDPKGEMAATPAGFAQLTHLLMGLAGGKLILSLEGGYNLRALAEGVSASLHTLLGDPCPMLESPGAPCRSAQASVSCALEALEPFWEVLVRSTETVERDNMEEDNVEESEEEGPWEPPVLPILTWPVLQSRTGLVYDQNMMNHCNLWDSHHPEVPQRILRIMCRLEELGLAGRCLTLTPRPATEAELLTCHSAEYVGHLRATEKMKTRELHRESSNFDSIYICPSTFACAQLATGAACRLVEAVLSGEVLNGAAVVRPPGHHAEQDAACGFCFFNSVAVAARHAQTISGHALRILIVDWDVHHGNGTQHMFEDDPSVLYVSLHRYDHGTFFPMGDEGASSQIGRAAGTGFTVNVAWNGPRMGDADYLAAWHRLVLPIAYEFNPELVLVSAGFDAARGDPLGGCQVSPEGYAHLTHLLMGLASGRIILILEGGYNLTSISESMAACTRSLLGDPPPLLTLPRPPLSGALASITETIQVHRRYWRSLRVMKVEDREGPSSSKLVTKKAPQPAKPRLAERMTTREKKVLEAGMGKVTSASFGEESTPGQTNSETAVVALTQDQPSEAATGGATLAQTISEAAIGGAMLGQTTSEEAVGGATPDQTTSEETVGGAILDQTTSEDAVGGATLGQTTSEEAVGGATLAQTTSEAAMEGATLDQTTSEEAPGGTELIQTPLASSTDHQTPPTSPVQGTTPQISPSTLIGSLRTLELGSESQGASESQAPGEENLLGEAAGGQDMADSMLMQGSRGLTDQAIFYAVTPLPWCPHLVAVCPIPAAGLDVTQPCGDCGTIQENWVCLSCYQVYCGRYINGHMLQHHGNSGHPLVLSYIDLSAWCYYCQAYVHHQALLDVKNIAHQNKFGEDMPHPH
UniProt Q13547, whole entry: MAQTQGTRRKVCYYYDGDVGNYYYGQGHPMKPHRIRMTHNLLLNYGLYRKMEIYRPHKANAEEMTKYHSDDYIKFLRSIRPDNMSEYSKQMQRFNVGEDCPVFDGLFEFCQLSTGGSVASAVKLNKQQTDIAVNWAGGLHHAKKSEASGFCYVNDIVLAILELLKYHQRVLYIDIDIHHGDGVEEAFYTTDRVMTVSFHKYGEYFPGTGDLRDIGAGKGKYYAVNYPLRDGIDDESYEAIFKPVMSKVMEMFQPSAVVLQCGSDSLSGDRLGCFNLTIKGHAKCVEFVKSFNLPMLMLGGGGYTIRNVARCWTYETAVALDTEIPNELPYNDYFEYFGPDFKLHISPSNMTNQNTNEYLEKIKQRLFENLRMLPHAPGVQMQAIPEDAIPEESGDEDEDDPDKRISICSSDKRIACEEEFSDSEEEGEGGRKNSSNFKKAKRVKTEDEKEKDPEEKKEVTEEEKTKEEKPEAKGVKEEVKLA
UniProt Q9UQL6, 656-1122 limits assumed: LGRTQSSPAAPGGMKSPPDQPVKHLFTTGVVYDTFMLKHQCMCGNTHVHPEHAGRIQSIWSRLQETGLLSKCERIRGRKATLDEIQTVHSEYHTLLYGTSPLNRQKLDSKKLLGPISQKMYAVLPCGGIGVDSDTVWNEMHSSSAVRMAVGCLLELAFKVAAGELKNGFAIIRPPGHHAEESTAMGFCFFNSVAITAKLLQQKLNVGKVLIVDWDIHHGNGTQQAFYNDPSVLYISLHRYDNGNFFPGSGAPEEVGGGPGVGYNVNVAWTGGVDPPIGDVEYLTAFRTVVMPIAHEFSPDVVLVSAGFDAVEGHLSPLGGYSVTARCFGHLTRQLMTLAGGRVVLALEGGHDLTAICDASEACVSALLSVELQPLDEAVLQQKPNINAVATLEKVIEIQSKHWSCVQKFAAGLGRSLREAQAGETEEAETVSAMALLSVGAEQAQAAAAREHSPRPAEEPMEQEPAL
UniProt P56524, 627-1084 limits assumed: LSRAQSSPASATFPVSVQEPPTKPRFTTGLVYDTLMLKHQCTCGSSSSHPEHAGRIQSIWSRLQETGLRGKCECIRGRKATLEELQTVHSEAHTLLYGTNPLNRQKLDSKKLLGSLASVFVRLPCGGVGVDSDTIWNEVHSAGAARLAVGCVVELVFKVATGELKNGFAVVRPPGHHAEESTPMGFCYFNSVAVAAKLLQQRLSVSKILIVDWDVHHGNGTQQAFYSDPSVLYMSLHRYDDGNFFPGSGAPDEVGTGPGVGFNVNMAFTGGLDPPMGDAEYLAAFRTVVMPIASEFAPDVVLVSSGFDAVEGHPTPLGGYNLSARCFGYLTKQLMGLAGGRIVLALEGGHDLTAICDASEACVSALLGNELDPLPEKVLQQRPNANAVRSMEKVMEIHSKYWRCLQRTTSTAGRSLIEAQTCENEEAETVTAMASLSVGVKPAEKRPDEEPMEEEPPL

In patent US20210038607A1:

Experiments:
Human HDAC9 = Human HDAC9 (Homo sapiens, UniProt Q9UKV0); assay: HDAC9 biochemical assay, class IIa-specific substrate; conditions: read-out: HDAC Isoform IC50 (nM) 9
Human HDAC7 = Human HDAC7 (Homo sapiens, UniProt Q8WUI4); assay: HDAC7 biochemical assay, class IIa-specific substrate; conditions: read-out: HDAC Isoform IC50 (nM) 7
Recombinant human HDAC6 = Recombinant human HDAC6 (Homo sapiens, UniProt Q9UBN7); assay: HDAC6 biochemical assay, AMC-labeled peptide substrate; conditions: read-out: HDAC Isoform IC50 (nM) 6
Human HDAC1 = Human HDAC1 (Homo sapiens, UniProt Q13547); assay: HDAC1 biochemical assay, AMC-labeled peptide substrate; conditions: read-out: HDAC Isoform IC50 (nM) 1
Human HDAC5 = Human HDAC5 (Homo sapiens, UniProt Q9UQL6); assay: HDAC5 biochemical assay, class IIa-specific substrate; conditions: read-out: HDAC Isoform IC50 (nM) 5
Human HDAC4 = Human HDAC4 (Homo sapiens, UniProt P56524); assay: HDAC4 biochemical assay, class IIa-specific substrate; conditions: read-out: HDAC Isoform IC50 (nM) 4

COC1CN(C(=O)c2cnnc(N(Cc3ccc(-c4noc(C(F)(F)F)n4)s3)c3cc(C(F)(F)F)cnn3)c2)C1 gave an IC50 (Human HDAC9) of over 10000 nM, an IC50 (Human HDAC7) of under 10000 nM and an IC50 (Recombinant human HDAC6) of under 500 nM. For the same compound, the IC50 (Human HDAC1) was over 10000 nM, the IC50 (Human HDAC5) was under 10000 nM and the IC50 (Human HDAC4) was under 10000 nM.
